This assay addresses T1, synaptobrevin SNARE motif, rat synaptobrevin 2 […] (rat).
T1 construct: synaptobrevin 2, rat, […] (SNARE motif); Uniformly 2H,15N-labelled in the NMR experiment; also called Syb; 2H,15N-Syb; source: E. coli, purified
Nature of the assay: NMR titration; 1H-15N TROSY-HSQC of 2H,15N-labelled synaptobrevin SNARE motif free and incorporated into the SNARE complex assembled from the purified fragments (overnight, 4°C); spectra at 32°C. To be noted: both partners purified.

B1: SNAP-25 C-terminal SNARE motif, human SNAP-25 residues 141-203 (domain or fragment, UniProt P60880 141-203, looked up)
chain: ARENEMDENLEQVSGIIGNLRHMALDMGNEIDTQNRQIDRIMEKADSNKTRIDEANQRATKML
notes: SNAP-25, human, residues 141-203 (C-terminal SNARE motif); also called SNC; SNAP-25 (141-203); source: E. coli, purified
As for B1, the binding result was “binds”.

The record behind these values is publication PMC4040926, “Re-examining how complexin inhibits neurotransmitter release” (eLife, 2014).
